In this assay the target is T1, MAO-A (Homo sapiens, UniProt P21397).
T1 construct: purchased Sigma-Aldrich (Steinheim, Germany)
The experiment in a line: In vitro fluorometric MAO-A inhibition assay (Ampliflu Red, tyramine). It counts as biochemical. The following applies: read-out: MAO-A % Inhibition.

Amino acid sequences for entries named in this document (tags omitted).
UniProt P21397, whole entry: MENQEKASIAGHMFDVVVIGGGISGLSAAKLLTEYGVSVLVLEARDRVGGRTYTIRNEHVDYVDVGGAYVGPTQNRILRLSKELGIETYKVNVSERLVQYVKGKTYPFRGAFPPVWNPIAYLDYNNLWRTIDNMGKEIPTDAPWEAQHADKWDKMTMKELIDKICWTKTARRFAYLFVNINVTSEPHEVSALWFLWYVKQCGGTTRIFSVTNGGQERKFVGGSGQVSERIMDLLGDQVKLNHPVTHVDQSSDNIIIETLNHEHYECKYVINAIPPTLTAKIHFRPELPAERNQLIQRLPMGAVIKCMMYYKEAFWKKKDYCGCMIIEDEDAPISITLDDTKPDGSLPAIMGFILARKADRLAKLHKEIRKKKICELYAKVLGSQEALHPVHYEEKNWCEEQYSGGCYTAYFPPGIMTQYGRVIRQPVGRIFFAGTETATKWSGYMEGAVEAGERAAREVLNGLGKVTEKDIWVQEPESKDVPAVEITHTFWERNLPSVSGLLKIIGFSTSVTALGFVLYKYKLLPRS

As for `C#CCN(C)CCCOc1ccc(Cl)cc1Cl` [Clorgiline, clorgiline, reference compound], the inhibition (commonly how much of the control response was suppressed) at 100 µM was 91.3 ± 1.3% and the inhibition at 1000 µM came out at 96.9 ± 1.25%.

The record behind these values is publication PMC7571065, “Design, Synthesis, In Vitro and In Silico Studies of New Thiazolylhydrazine-Piperazine Derivatives as Selective MAO-A Inhibitors” (Molecules, 2020).
